Experimental data reported in patent US5132432A, “Chemically reactive pyrenyloxy sulfonic acid dyes” (Molecular Probes, Inc., priority 1989, dated 1992).
Structures can show the parent of a compound that is named as a salt.

Key:
[1] = Spectral properties (absorption/emission) of new pyrenyloxy sulfonic acid dyes, Table 4; assay type: physicochemical; details: 50 mM aqueous potassium phosphate buffer at pH 8.0; for Em Max: uncorrected
Method: Stock solutions were prepared by accurately weighing and dissolving 5-10 mg samples of the compounds in 2.000 ml water. A 10 μl aliquot of the stock solution was diluted into 2.00 ml of 50 mM potassium phosphate buffer at pH 8.0. Absorbance solutions were prepared by further diluting 200 μl of the diluted stock solution to 2.000 ml with 50 mM potassium phosphate buffer at pH 8.0. Absorption data was collected on an IBM Model 9420 UV/Visible Spectrophotometer and extinction coefficients were determined by standard Beer's Law calculations.
Uncorrected fluorescence data was obtained on a Perkin-Elmer Model 650-40 Fluorescence Spectrophotometer equipped with a Perkin-Elmer/Hitachi 057 X-Y Recorder using a ten- to twentyfold dilution of the absorbance solutions. Fluorescence of the pyrenyloxy sulfonic acid dyes was determined for the reactive dyes and for their conjugates with model compounds by dissolving the dye at a concentration above 1×10^-8M in an appropriate solvent such as water, methanol, ethanol, or dimethylsulfoxide and measurement of the fluorescence in a suitable instrument, such as a fluorescence spectrometer or fluorescence microscope or flow cytometer. Fluorescence could also be observed for the dyes in solution by visual inspection with illumination by a suitable source that emits light at wavelengths of less than 420 nm.

[2] = Comparison of spectral properties of reactive dyes, Table 1; assay type: physicochemical
Excerpt: A number of dyes have been proposed in the literature that can be excited and detected at wavelengths less than 500 nm. Several chemically reactive fluorophores that can be excited in the near ultraviolet and short wavelength visible region of the spectrum have been described. […] These proposed tracers are derived from naphthalene derivatives such as 5-dimethylaminonaphthalene-1-sulfonic acid (Dansyl) [Weber, Biochem. J. 41:145 (1952); Rinderknecht, Experientin 16:430 (1960)], 3-(isothiocyanato)naphthalene-1,5-disulfonic acid [Braunitzer, et al., Hoppe-Seyler's Z. Physiol. […] Chem. 358:505 (1977)], pyrene derivatives such as pyrene-1-butyric acid (PBA) [Malencik & Anderson, Biochemistry 11:3022 (1972)], 8-isothiocyanatopyrene-1,3,6-trisulfonic acid (IPTS) [Braunitzer,et al., Hoppe-Seyler's Z. Physiol. Chem. 354:1536 (1973)] and 8-hydroxypyrene-1,3,6-trisulfonyl chloride [Wolfbeis, Fresenies Z. Anal. Chem. 320:271 (1985)], stilbene derivatives such as 4-acetamido-4'-isothiocyanatostilbene-2,2'-disulfonic acid (SITS) [Cornelisse & Ploem, J. Histochem. Cytochem. 24:72 (1976)], and coumarin dyes such as 3-carboxy-7-hydroxycoumarin [Baker & Collis, J. Chem. Soc. 1949, S 12 (1949)], 7-hydroxy-4-methylumbelliferone-3-acetic acid (4-MUA) [Khalfan, et al., Biochem. J. 209:265 (1983)], 7-amino-4-methylcoumarin-3-acetic acid (AMCA) [Khalfan, et al., Histochem. […]

[3] = second (shorter-wavelength) maximum

| Compound | Abs Max [1, 3] [nm] | Em Max [1] [nm] | also measured |
| --- | --- | --- | --- |
| [N-]=[N+]=Nc1ccc(C(=O)NCCCCCNC(=O)COc2cc(S(=O)(=O)[O-])c3ccc4c(S(=O)(=O)[O-])cc(S(=O)(=O)[O-])c5ccc2c3c54)cc1.[Na+].[Na+].[Na+] [Compound 20, N-(1,3,6-Trisulfo-8-pyrenyloxyacetyl)-N'-(4-azidobenzoyl)-1,5-pentanediamine, trisodium salt] | 378 |  |  |
| O=C(COc1cc(S(=O)(=O)O)c2ccc3c(S(=O)(=O)O)cc(S(=O)(=O)O)c4ccc1c2c43)NCCO [Compound 10] |  | 423 |  |
| C=CC(=O)NCCCCCNC(=O)COc1cc(S(=O)(=O)O)c2ccc3c(S(=O)(=O)O)cc(S(=O)(=O)O)c4ccc1c2c43 [Compound 19] | 378 | 423 |  |
| CC(C)(C)OC(=O)N1CCC[C@H]1C(=O)NCCNC(=O)COc1cc(S(=O)(=O)[O-])c2ccc3c(S(=O)(=O)[O-])cc(S(=O)(=O)[O-])c4ccc1c2c43.[Na+].[Na+].[Na+] [Compound 14, N-(1,3,6-Trisulfo-8-pyrenyloxyacetyl)-N'-(N-t-butoxycarbonyl-L-prolyl)-1,2-ethanediamine, trisodium salt] | 378 |  |  |
| N#CCCCCCNC(=O)COc1cc(S(=O)(=O)O)c2ccc3c(S(=O)(=O)O)cc(S(=O)(=O)O)c4ccc1c2c43 [Compound 16] |  | 423 |  |
| CC(C)(C)OC(=O)N1CCC[C@H]1C(=O)NCCCCCNC(=O)COc1cc(S(=O)(=O)O)c2ccc3c(S(=O)(=O)O)cc(S(=O)(=O)O)c4ccc1c2c43 [Compound 15] |  | 423 |  |
| NNC(=O)COc1cc(S(=O)(=O)[O-])c2ccc3c(S(=O)(=O)[O-])cc(S(=O)(=O)[O-])c4ccc1c2c43.[Na+].[Na+].[Na+] [Compound 12, 1,3,6-Trisulfo-8-pyrenyloxyacethydrazide, trisodium salt] |  | 423 | Em. Max. [2]: 423 nm |
| N.N.N.NNC(=O)COc1cc(S(=O)(=O)O)c2ccc3c(S(=O)(=O)O)cc(S(=O)(=O)O)c4ccc1c2c43 [Compound 13, 1,3,6-Trisulfo-8-pyrenyloxyacethydrazide, triammonium salt] |  | 423 |  |
| NCCNC(=O)COc1cc(S(=O)(=O)O)c2ccc3c(S(=O)(=O)O)cc(S(=O)(=O)O)c4ccc1c2c43 [Compound 3, 1,3,6-Trisulfo-8-pyrenyloxyacetamido-1-(2-aminoethane), trisodium salt] | 378 | 423 |  |
| NNC(=O)COc1cc(S(=O)(=O)O)c2ccc3c(S(=O)(=O)O)cc(S(=O)(=O)O)c4ccc1c2c43 [Compound 11, 1,3,6-Trisulfo-8-pyrenyloxyacethydrazide, free sulfonic acid] |  | 423 |  |
| 1,3,6-Trisulfo-8-pyrenyloxyacetamido-dextranamine [Compound 5] | 378 | 423 | Emission Band-width [1]: 50 nm; Emission at 514 nm [1]: 4.5 % of max; Abs Max ([1]; first (longer-wavelength) maximum): 400 nm |
